Literature values in publication PMC6719874 (PLoS ONE, 2019).

Chains of the proteins cited; added tags and fusions are not shown.
UniProt Q12809, whole entry Y652A: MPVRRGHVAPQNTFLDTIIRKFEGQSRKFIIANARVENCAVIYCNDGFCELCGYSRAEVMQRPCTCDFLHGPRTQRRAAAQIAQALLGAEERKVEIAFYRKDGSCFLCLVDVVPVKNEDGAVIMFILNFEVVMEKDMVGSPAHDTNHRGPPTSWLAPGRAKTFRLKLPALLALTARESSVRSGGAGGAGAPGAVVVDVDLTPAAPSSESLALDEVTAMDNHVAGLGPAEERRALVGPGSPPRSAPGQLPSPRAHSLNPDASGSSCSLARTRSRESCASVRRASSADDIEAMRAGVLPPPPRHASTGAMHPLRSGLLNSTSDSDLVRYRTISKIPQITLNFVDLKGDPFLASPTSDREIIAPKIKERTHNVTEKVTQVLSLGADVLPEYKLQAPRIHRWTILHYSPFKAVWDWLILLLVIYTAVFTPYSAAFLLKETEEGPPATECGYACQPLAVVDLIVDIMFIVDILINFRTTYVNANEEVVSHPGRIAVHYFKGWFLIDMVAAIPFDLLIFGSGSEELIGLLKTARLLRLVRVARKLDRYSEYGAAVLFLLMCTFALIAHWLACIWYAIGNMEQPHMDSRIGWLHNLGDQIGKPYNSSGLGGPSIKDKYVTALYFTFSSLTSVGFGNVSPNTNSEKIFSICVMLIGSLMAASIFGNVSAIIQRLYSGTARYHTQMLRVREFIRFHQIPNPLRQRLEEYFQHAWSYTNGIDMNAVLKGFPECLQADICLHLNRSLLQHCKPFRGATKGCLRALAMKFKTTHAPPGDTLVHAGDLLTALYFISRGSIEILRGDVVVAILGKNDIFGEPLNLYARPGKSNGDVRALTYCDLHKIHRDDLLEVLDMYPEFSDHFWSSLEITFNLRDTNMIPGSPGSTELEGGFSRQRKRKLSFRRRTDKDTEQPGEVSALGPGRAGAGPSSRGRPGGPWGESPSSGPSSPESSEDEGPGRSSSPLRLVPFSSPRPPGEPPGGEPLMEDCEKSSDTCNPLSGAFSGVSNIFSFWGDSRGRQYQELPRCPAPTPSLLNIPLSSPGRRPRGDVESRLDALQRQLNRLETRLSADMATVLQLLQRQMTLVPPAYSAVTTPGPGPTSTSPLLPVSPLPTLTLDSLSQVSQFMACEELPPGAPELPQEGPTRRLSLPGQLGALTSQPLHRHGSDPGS

Molecular target: T1, Y652A hERG (Homo sapiens, UniProt Q12809, Y652A)
T1 construct: host or cells: Xenopus laevis oocytes injected with cRNA
Settings: for fold increased IC50 in presence of Y652A mutation: range given for the group of drugs ref 58

| SMILES | change of IC50 in the Y652A mutant | fold increased IC50 in presence of Y652A mutation |
| --- | --- | --- |
| CC(C)COCC(CN(Cc1ccccc1)c1ccccc1)N1CCCC1 (stereo not shown) [bepridil] | only a slight increase in IC50 |  |
| COc1cc(N)c(Cl)cc1C(=O)NC1CCN(CCCOc2ccc(F)cc2)CC1OC (stereo not shown) [cisapride] |  | 40–650 fold |
| CS(=O)(=O)Nc1ccc2c(c1)[C@H](O)CC1(CCN([C@@H]3CCc4cc(C#N)ccc4C3)CC1)O2 [MK-499] |  | 40–650 fold |
| CN(CCOc1ccc(NS(C)(=O)=O)cc1)CCc1ccc(NS(C)(=O)=O)cc1 [dofetilide] |  | 40–650 fold |
